Experimental data as given in US7186703B2, “Derivatives of branched-chain lipophilic molecules and uses thereof” (D-Pharm Ltd., priority 2000, dated 2007).

Type: in vivo
Details: rats; sodium salt
Experimental: DP-BFA molecules were evaluated for safety and toxicity. Increasing doses of the tested compounds were administered intra-arterially (i.a.) into rats following the protocol described above in Example 17. Animal viability was monitored for 24 hours to evaluate lethal concentrations (LC). LC is defined as the minimal concentration that caused death.
Safety index is defined as the ratio between the lethal dose (LC) and the minimal effective concentration (MEC), wherein MEC corresponds to a calculated concentration of the tested compound that elicits accumulation of three times the amount of Evans blue accumulated in control animals treated with vehicle only, i.e. total accumulation of 3 μg EB. The higher the LC/MEC ratio is, the higher the safety index.

Substance	Safety LC/MEC
2-(4′-Hexadecanoyloxy)ethoxyethyl phosphate [3,12-DEG-PO4]	10
4-Hexadecanoyloxyethyl phosphate [3,12-MEG-PO4]	7.5
